Tests used:
[1] = tested on: Mus musculus; assay: Sedative activity in sc dosed Kunming mouse assessed as […] after 20 mins by rotation test; details: in vivo
[2] = tested on: Mus musculus; assay: Antinociceptive activity in ip dosed mouse assessed as acetic acid induced writhing administered 30 mins prior to acetic acid challenge measured for 20 mins

CN(C(=O)Cc1ccc(Cl)c(Cl)c1)C1CCCCC1N1CCCC1 (configuration not stated)
ED50 [1]: 3.32 mg/kg | ED50 [2]: 0.885 mg/kg
